According to patent publication US20240101548A1, “HYDROXAMATE COMPOUND, PREPARATION METHOD THEREFOR AND APPLICATION THEREOF” (SHENZHEN CHIPSCREEN BIOSCIENCES CO., LTD., priority 2020, published 2024):

Assay: In-vivo pharmacokinetic test in mice
Set-up: species or system mouse
Settings: BALB/c female mice, gavage 10 mg/kg, plasma
Protocol: LC-MS/MS method is used to determine the drug concentration in the plasma of mice at different times after intragastric administration of the compound of the example. Relevant pharmacokinetic parameters are calculated to study the pharmacokinetic behavior of the compound of the present invention in mice, thereby evaluating the pharmacokinetic characteristics thereof.
Test animal was healthy adult BALB/c female mouse (provided by Chengdu Yaokang Biotechnology Co., Ltd.);
Compound administration and sample collection: compound was administered to BALB/c female mice by gavage (10 mg/kg). At 0.25, 0.5, 1, 2, 4, 6, 8, and 24 hours after administration, 60 μL of whole blood of the mouse fundus venous plexus were collected and centrifuged at 4000 rpm for 10 min to provide plasma.
Sample analysis: 10 μL of mouse plasma samples were respectively added with 290 μL of acetonitrile solution containing internal standard to precipitate proteins. After swirling for 10 min and centrifuging at 4000 rpm for 10 min, 200 μL of supernatant was added to 96-well plate, and analyzed by LC-MS/MS at an injection volume of 1 μL.

Substance: BMS-986165
- AUC: 10.1 µM·h
- Cmax: 4.27 µM
